# scFv variants of Ab-91 (heavy chain) against a SARS-CoV-2 spike peptide

Data: MIT Lincoln Laboratory AlphaSeq set, Engelhart et al. 2022, doi:10.1038/s41597-022-01779-4, as distributed in FLAb.

Binding partner: SARS-CoV-2 spike HR2 peptide, sequence PDVDLGDISGINAS.

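The starting antibody came from a phage panning campaign against this peptide. The library (AAYL51) carries one to three amino acid substitutions per variant, with no insertions or deletions. In AlphaSeq, yeast of one mating type display the scFv and yeast of the other type display the target. The frequency of each diploid, read from paired DNA barcodes, reflects how well the two displayed proteins bind. A regression on co-assayed BCL2-family reference pairs converts the normalised counts of each replicate to an apparent Kd. The assay was run in three technical replicates.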

The variants keep the light chain, the linker and the frameworks of Ab-91 (scFv order VL, the linker GGGGSGGGGSGGGGS, VH).
VL: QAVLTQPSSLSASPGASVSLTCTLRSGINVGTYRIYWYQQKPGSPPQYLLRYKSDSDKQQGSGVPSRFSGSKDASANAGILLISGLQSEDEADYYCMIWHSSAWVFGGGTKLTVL
VH: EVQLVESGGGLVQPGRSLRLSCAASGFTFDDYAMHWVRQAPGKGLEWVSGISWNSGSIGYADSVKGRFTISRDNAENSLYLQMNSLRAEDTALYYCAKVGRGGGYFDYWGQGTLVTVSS

The parent's heavy chain CDRs are GFTFDDYAMH, GISWNSGSIGYADSVK, VGRGGGYFDY; each variant's own CDRs replace them letter for letter. Numbers give log10(Kd / nM), so 0 is 1 nM and 3 is 1 µM. Smaller is tighter. Replicates are averaged; those with no signal do not enter the mean. A pair that was not seen in any replicate is written "not detected"; this usually means weak binding, but a binder can also be missed. Three control strains display no target. For library AAYL51, 21% of the pairings with them gave a signal, with a median of 4.54 and one signal in twenty below 3.26, so weak values seen in few replicates may be background. For each scFv, signals with the empty controls are counted beside the result.

CDR-H1	CDR-H2	CDR-H3	log10 Kd (nM), mean	seen in	empty controls
GFTFADYAMH	GISWNSGSEGYADSGK	VGRGGGYFDY	not detected	0 of 3	0 of 9
GFTFDDYAMH	GISWNQGSIGYADSDK	GGRGGGYFDY	not detected	0 of 3	0 of 9
GFGFDDYAMH	GISWNSGSIYYADSVK	VGRGGGMFDY	not detected	0 of 3	2 of 9
GFTFDDYAMH	GIDWNSGSIGYALSVK	VGRGGGYFFY	not detected	0 of 3	0 of 9
GFTFDDYAMH	GISWASGSIGYADRVM	VGRGGGYFDY	4.88	1 of 3	7 of 9
GFSFDDYAYH	GISWNSGSIGYADSVK	VGRGGGYFDK	3.66	2 of 3	3 of 9
CFTFDDYAMH	GISWNSGSIGYWDSVK	VGRGGGYFPY	5.01	2 of 3	5 of 9
GFTGDDYADH	GISWNSGSIGYADSVK	VGMGGGYFDY	4.70	3 of 3	3 of 9
YFTFDDGAMH	GISWNSGSIGYYDSVK	VGRGGGYFDY	not detected	0 of 3	0 of 9
GFTFDDYAMH	GISWNSGSIGYAGSVC	VGRGGGYFGY	2.51	3 of 3	2 of 9
GFTFDDYAMH	GISDNSGSIGFADSVK	VERGGGYFDY	4.04	1 of 3	1 of 9
GFTFDAYAMH	GISSNSGSIGYWDSVK	VGRGGGYFDY	3.08	3 of 3	0 of 9
GFTFDDYAMH	GISWNSGSIGYADSVK	VGRGGALFDY	4.24	1 of 3	2 of 9
GFTFDDYAMH	GISWNSGSDGYLDSVK	HGRGGGYFDY	not detected	0 of 3	1 of 9
GFTFDDYFMH	GISWNSGSIGYADSVK	VARGGKYFDY	3.42	2 of 3	0 of 9
GFTFDDFAMH	GISWNSGSIGYADSVM	VGRGGGYMDY	4.46	2 of 3	5 of 9
GDTFDDYAMH	GISWNSGEIGYADSVK	HGRGGGYFDY	5.38	2 of 3	1 of 9
GFTFDLYAMH	GISWNSGSIGYADSVK	TGRGGGYFDY	3.19	3 of 3	6 of 9
GFTFDDYAMH	GISWNSGSAGYADEVK	VPRGGGYFDY	4.83	3 of 3	6 of 9
GFTFDDYAMH	GISWNSGSIGYADSSK	VGRGGWMFDY	4.68	1 of 3	3 of 9
GFKTDDYAMH	GIDWNSGSIGYADSVK	VGRGGGYFDY	2.74	1 of 3	0 of 9
GFTFDDSPMH	GISWNSGSIAYADSVK	VGRGGGYFDY	not detected	0 of 3	0 of 9
GFTFDDYAMH	GFSWNSGSIGYADRAK	VGRGGGYFDY	5.26	1 of 3	1 of 9
GFIFDDYAMH	GISWNSGSIGYADQVK	VSRGGGYFDY	2.41	3 of 3	0 of 9
GFTFDDYAMH	GISWNSGSISHADSVK	VGVGGGYFDY	4.56	2 of 3	5 of 9
GFTFDDYLMH	GISWMSGSIGYADSVK	LGRGGGYFDY	3.56	1 of 3	0 of 9
GMTFDDYAMH	GISWNSGSIGYADSVK	CGRGGGYYDY	5.65	2 of 3	6 of 9
GFTFDDYAMH	GKSWNVGSVGYADSVK	VGRGGGYFDY	not detected	0 of 3	2 of 9
GFTFDDYAMH	GISWCSGSILYADSVK	VGRGGGYFDG	not detected	0 of 3	0 of 9

Second part, the sequence after the result:

log10 Kd (nM), mean	seen in	empty controls	CDR-H1	CDR-H2	CDR-H3
2.29	3 of 3	3 of 9	GFTFDDYAMH	GISWNSGSIGYADSVK	VERGGGYWDS
4.74	2 of 3	3 of 9	GLTFDDYAEH	GISWNSGSIGYADSVK	CGRGGGYFDY
4.99	3 of 3	9 of 9	GFTFDDYAMH	GISWNSGRIGYADSVK	VGRGGSYFDY
not detected	0 of 3	0 of 9	GFTFDDYHMH	GISWNSGSIGYARSVK	LGRGGGYFDY
not detected	0 of 3	1 of 9	GFTFDDYAMH	GISWNTGFIGYADSVK	KGRGGGYFDY
not detected	0 of 3	0 of 9	GFTFDDYAMH	GISWNPGSIGYCDSVK	VGRGGGYSDY
not detected	0 of 3	0 of 9	GFTFFDYAMH	GIKWNSGSIGYTDSVK	VGRGGGYFDY
4.76	3 of 3	8 of 9	GFTFDDYAMH	GISANSGSIGYGDSVK	VGRGGEYFDY
4.14	2 of 3	5 of 9	GFTFDDYAMH	FYSWNSGSDGYADSVK	VGRGGGYFDY
not detected	0 of 3	1 of 9	GFTFTDYAMH	GISWNSGSIGYADSVK	VNRGGGYFDY
not detected	0 of 3	0 of 9	GFTEDDYAML	GISWNSGSIGYADSVK	VGEGGGYFDY
5.27	2 of 3	4 of 9	GFTFDDYAMH	GSSWNSGDIGYADSFK	VGRGGGYFDY
not detected	0 of 3	1 of 9	GFTFDDYAMH	GISWNSGSIGYADSKK	VGRGRAYFDY
not detected	0 of 3	0 of 9	SFTFDDYAMH	GISWNSGSIGYADSVK	VGREGRYFDY
not detected	0 of 3	3 of 9	GKTFDDYAMR	GISWNSGSIGAADSVK	VGRGGGYFDY
6.18	1 of 3	0 of 9	GFTFDDYAMH	GISWFSSSIGEADSVK	VGRGGGYFDY
4.36	2 of 3	3 of 9	GFTFDDYAMH	GISWNSGSIGYPDSVF	VGRGGGEFDY
not detected	0 of 3	1 of 9	GFTFDDYAMH	MISWNSGSIGYCDSVK	VGEGGGYFDY
4.63	1 of 3	3 of 9	GFTFDDYVMH	GISWNSGQIGYADSVK	VGRGGGYFDT
5.14	1 of 3	3 of 9	GFTFDDAAML	GISWNSGSIGYADSVK	VGRIGGYFDY
3.80	1 of 3	2 of 9	GFTFDDYAMH	GISWNRGSIGYADSVK	VGRGRGYFHY
1.07	3 of 3	1 of 9	GFTFDCYAMH	GISWNSGSEGYADSVK	VGRGGGYFDY
not detected	0 of 3	0 of 9	GFTFDDYAMH	GISWNSGSWGYADSVK	VLRGGGYFDY
4.91	2 of 3	3 of 9	GFTFDDYAMH	GISWNSGGIGYADSVL	VRRGGGYFDY
not detected	0 of 3	1 of 9	GFTFDDYAMH	GISWNSGVIGYAWSVK	VKRGGGYFDY
not detected	0 of 3	1 of 9	GFTFDDYADH	GISWNSGSIGYAGSVK	VGRGGPYFDY
not detected	0 of 3	0 of 9	GFTFDDYAMH	GISWESGSIIYADSLK	VGRGGGYFDY
5.38	1 of 3	3 of 9	GFTFDDYAMH	GIDWNSGIIGYADSVK	VGRGGGYFPY
not detected	0 of 3	1 of 9	GFTFDYYAMH	SISWNSGSIGYADSVK	VGRGGGYFDR
3.93	1 of 3	2 of 9	TFTFDDYAMH	GISWNSGSIAYADSVK	VGRGDGYFDY

Picked from the list: the 7 lowest averages where every replicate gave a value.

CDR-H1,CDR-H2,CDR-H3,"log10 Kd (nM), mean",seen in,empty controls
GFTFDCYAMH,GISWNSGSEGYADSVK,VGRGGGYFDY,1.07,3 of 3,1 of 9
GFTFDDYAMH,GISWNSGSIGYADSVK,VERGGGYWDS,2.29,3 of 3,3 of 9
GFIFDDYAMH,GISWNSGSIGYADQVK,VSRGGGYFDY,2.41,3 of 3,0 of 9
GFTFDDYAMH,GISWNSGSIGYAGSVC,VGRGGGYFGY,2.51,3 of 3,2 of 9
GFTFDAYAMH,GISSNSGSIGYWDSVK,VGRGGGYFDY,3.08,3 of 3,0 of 9
GFTFDLYAMH,GISWNSGSIGYADSVK,TGRGGGYFDY,3.19,3 of 3,6 of 9
GFTGDDYADH,GISWNSGSIGYADSVK,VGMGGGYFDY,4.70,3 of 3,3 of 9